Reference: patent publication US10881712B2, “Neuroprotective agents derived from spider venom peptides” (THE UNIVERSITY OF QUEENSLAND, priority 2015, dated 2021)

Experiments:
Assay type in all cases: cell-based
[1] = molecular target: T1, hASIC1a (Homo sapiens, UniProt P78348); assay: TEVC on Xenopus laevis oocytes expressing homomeric hASIC1a
T1 construct: expressed in transfected cells; host or cells: Xenopus laevis oocytes injected with cRNA
T1 sequence (P78348 1-528): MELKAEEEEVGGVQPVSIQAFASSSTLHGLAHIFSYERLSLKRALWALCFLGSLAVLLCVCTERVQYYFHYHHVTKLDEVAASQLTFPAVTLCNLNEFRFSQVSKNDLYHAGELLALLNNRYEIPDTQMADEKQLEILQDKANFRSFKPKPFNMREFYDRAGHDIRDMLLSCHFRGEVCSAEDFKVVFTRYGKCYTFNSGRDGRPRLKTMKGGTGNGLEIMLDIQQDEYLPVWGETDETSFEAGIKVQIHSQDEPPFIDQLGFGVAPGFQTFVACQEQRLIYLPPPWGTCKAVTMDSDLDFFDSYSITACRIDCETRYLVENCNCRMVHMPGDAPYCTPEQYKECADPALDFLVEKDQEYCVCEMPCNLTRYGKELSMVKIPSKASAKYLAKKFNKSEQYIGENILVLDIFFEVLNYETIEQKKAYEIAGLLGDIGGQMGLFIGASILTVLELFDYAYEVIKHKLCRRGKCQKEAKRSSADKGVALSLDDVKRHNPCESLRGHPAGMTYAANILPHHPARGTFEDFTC
Description: (§1) The ability of the peptides of the invention to modulate ASIC currents was assessed using two-electrode voltage clamp (TEVC) electrophysiology experiments performed on Xenopus laevis oocytes expressing homomeric ASIC channels. Xenopus oocytes are widely used as an expression system for functional characterisation of ion channel modulators. TEVC allows measurement of whole-cell ion channel currents while controlling the membrane potential.
(§2) Oocytes were harvested from anaesthetised female X. laevis then defolliculated by treatment with collagenase (Sigma, type I). Oocytes were injected with in vitro transcribed ASIC cRNA (capped RNA). Oocytes were kept at 17-18° C. in ND96 solution containing 96 mM NaCl, 2 mM KCl, 1.8 mM CaCl2, 2 mM MgCl2, 5 mM HEPES, 5 mM pyruvic acid, 50 μg/ml gentamicin (pH 7.4), and fetal horse serum (2.5%), and experiments were performed at room temperature (21-22° C.) 1-3 days after cRNA injection. Oocytes were clamped at −60 mV (Warner OC-725C oocyte clamp; Warner Instruments, CT, USA) using two standard glass microelectrodes of 0.5-2 MΩ resistance when filled with 3 M KCl. Data acquisition and analysis were performed using pCLAMP software, Version 10 (Axon Instruments, CA, USA). Currents were elicited by a drop in pH from 7.45 to 6.0 using a microperfusion system to allow rapid solution exchange. All experiments were performed using ND96 solution spiked with 0.1% BSA in order to minimise adsorption of peptides to plastic tubing.

[2] = molecular target: T2, rASIC1b (Rattus norvegicus, UniProt P55926); assay: TEVC on Xenopus oocytes expressing rASIC1b
T2 construct: expressed in transfected cells; host or cells: Xenopus laevis oocytes injected with cRNA
T2 sequence (P55926 1-559 isoform P55926-3): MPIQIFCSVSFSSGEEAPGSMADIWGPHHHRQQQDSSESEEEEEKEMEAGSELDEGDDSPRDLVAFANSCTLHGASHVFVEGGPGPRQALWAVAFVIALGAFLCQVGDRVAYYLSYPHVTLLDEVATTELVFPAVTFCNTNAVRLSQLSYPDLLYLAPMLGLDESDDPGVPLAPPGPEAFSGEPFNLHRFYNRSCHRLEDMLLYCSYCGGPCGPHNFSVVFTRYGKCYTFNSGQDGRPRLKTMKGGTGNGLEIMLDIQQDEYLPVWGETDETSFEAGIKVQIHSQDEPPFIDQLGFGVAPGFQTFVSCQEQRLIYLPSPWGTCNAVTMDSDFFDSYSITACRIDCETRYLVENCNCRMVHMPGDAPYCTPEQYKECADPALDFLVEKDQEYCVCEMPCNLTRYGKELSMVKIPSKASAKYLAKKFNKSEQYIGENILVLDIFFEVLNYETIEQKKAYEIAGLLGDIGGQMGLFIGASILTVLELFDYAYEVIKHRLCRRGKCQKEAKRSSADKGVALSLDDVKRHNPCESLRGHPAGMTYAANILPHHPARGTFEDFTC
Description: as §1
as §2, with “All experiments were performed using ND96 solution spiked with 0.1% BSA in order to minimise adsorption of peptides to plastic tubing.” left out

[3] = molecular target: T3, rASIC2a (Rattus norvegicus, UniProt Q62962); assay: TEVC on Xenopus oocytes expressing rASIC2a
T3 construct: expressed in transfected cells; host or cells: Xenopus laevis oocytes injected with cRNA
T3 sequence (Q62962 1-512): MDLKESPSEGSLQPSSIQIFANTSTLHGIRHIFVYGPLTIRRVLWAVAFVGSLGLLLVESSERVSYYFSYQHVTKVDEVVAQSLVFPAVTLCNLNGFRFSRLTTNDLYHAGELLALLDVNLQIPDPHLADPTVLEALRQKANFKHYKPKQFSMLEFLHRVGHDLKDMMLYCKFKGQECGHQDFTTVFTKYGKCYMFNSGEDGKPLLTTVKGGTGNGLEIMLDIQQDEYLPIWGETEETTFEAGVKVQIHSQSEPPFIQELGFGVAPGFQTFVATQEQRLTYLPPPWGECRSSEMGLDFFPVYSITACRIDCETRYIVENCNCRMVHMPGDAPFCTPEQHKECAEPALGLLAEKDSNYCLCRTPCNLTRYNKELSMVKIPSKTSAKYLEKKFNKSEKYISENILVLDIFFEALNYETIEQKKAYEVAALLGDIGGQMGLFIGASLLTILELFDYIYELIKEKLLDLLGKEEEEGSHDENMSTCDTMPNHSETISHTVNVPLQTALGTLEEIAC
Description: as §1
as §2, with “All experiments were performed using ND96 solution spiked with 0.1% BSA in order to minimise adsorption of peptides to plastic tubing.” left out

[4] = molecular target: T4, F350A mutant rASIC1a (Rattus norvegicus, UniProt P55926, F350A); assay: TEVC on Xenopus oocytes expressing F350A mutant rASIC1a; settings: concentration dependent effects, FIG. 3D
T4 construct: expressed in transfected cells; host or cells: Xenopus oocytes
T4 sequence (P55926 1-526 F350A): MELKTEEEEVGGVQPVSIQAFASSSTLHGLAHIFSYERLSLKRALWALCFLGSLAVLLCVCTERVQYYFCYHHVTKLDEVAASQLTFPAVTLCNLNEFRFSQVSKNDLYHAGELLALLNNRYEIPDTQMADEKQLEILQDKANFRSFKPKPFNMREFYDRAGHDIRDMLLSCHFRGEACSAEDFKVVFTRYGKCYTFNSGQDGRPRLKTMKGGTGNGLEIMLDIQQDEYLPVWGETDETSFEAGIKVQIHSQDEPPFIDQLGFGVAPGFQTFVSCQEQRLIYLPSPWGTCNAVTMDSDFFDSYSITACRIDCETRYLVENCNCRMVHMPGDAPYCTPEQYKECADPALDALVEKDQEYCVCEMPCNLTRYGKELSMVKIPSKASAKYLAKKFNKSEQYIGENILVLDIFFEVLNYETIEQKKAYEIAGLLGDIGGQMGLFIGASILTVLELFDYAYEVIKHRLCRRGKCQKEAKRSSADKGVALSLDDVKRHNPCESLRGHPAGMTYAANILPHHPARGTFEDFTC
Description: as §1
as §2, with “All experiments were performed using ND96 solution spiked with 0.1% BSA in order to minimise adsorption of peptides to plastic tubing.” left out

Structure (SMILES): CC[C@H](C)[C@@H]1NC(=O)[C@@H](NC(=O)[C@H](CCC(=O)O)NC(=O)[C@H](CC(N)=O)NC(=O)[C@@H](N)CO)CSSC[C@@H]2NC(=O)[C@@H]3CSSC[C@@H](C(=O)N[C@H](C(=O)N4CCC[C@H]4C(=O)N[C@H](C(=O)N4CCC[C@H]4C(=O)NCC(=O)N[C@@H](Cc4ccccc4)C(=O)N[C@H]4CSSC[C@@H]5NC(=O)[C@@H]6CSSC[C@@H](C(=O)N[C@@H](C)C(=O)N7CCC[C@H]7C(=O)N[C@H](C(=O)N[C@H](C(=O)O)[C@@H](C)O)[C@@H](C)CC)NC(=O)[C@H](C(C)C)NC(=O)[C@H](CO)NC(=O)[C@H](CO)NC(=O)[C@H](CCCCN)NC(=O)[C@H](CC(N)=O)NC(=O)CNC(=O)[C@H](CO)NC(=O)[C@H](CCCNC(=N)N)NC(=O)[C@H](CCCCN)NC(=O)[C@H](Cc7c[nH]c8ccccc78)NC(=O)[C@H](CSSC[C@H](NC(=O)[C@H](CCC(N)=O)NC(=O)[C@H](CCCCN)NC(=O)[C@H](Cc7c[nH]c8ccccc78)NC(=O)[C@H](CCCCN)NC(=O)[C@H](C(C)C)NC(=O)[C@H](CC(C)C)NC4=O)C(=O)N[C@@H](CC(=O)O)C(=O)NCC(=O)N[C@@H](CCCNC(=N)N)C(=O)N[C@@H](CCC(=O)O)C(=O)N[C@@H](CCCNC(=N)N)C(=O)N[C@@H](CC(=O)O)C(=O)N6)NC(=O)[C@H](CCC(=O)O)NC(=O)[C@H](CC(C)C)NC(=O)CNC(=O)[C@H](C)NC5=O)[C@@H](C)CC)C(C)C)NC(=O)[C@H](C(C)C)NC(=O)[C@H](CCC(=O)O)NC(=O)[C@H](Cc4ccccc4)NC(=O)[C@H](CO)NC(=O)[C@H](Cc4c[nH]cn4)NC(=O)[C@H](CCCNC(=N)N)NC(=O)[C@H](CCCNC(=N)N)NC(=O)[C@H](CCCCN)NC(=O)[C@H](Cc4ccc(O)cc4)NC(=O)[C@H](CSSC[C@H](NC(=O)[C@H](CO)NC(=O)[C@H](CC(C)C)NC(=O)[C@H](Cc4c[nH]c5ccccc45)NC(=O)[C@H](CCCCN)NC(=O)[C@H](CCCNC(=N)N)NC1=O)C(=O)N[C@@H](C(C)C)C(=O)N[C@@H](CC(=O)O)C(=O)N[C@@H](CCCNC(=N)N)C(=O)N[C@@H](CCCCN)C(=O)N[C@@H](CC(N)=O)C(=O)N[C@@H](CC(=O)O)C(=O)N3)NC(=O)[C@H](CCC(=O)O)NC(=O)[C@H](CC(C)C)NC(=O)CNC(=O)[C@H](CCC(=O)O)NC2=O [Hi1a]
- IC50 [1]: 0.59 ± 0.14 nM
- Rapidly reversible inhibition ([1]; Table 1, upon washout): No
- Effect on pH50 of activation ([1]; peptide applied at pH 7.45, concentration-dependent): shifted to slightly lower values
- Effect on steady-state desensitisation (SSD) curve ([1]; two concentrations of peptide): pH-independent decrease in the maximum current
- Effect on rASIC1b current ([2]; 30 nM at pH 7.45): minimal effect
- Effect on rASIC1b current ([2]; 1 μM at pH 7.45): mildly potentiated
- Effect on rASIC2a current ([3]; 30 nM at pH 7.45): minimal effect
- Effect on rASIC2a current ([3]; 1 μM at pH 7.45): no effect
- Activity on F350A mutant of rASIC1a [4]: no activity
